Measurements published in ChEMBL document CHEMBL5726649, “Kinase inhibitors and methods of use” (2017).

Chains of the proteins cited; added tags and fusions are not shown. Lines headed by an entry give the natural chain unless they say otherwise; changes in a name come on top.
UniProt P42336, whole entry: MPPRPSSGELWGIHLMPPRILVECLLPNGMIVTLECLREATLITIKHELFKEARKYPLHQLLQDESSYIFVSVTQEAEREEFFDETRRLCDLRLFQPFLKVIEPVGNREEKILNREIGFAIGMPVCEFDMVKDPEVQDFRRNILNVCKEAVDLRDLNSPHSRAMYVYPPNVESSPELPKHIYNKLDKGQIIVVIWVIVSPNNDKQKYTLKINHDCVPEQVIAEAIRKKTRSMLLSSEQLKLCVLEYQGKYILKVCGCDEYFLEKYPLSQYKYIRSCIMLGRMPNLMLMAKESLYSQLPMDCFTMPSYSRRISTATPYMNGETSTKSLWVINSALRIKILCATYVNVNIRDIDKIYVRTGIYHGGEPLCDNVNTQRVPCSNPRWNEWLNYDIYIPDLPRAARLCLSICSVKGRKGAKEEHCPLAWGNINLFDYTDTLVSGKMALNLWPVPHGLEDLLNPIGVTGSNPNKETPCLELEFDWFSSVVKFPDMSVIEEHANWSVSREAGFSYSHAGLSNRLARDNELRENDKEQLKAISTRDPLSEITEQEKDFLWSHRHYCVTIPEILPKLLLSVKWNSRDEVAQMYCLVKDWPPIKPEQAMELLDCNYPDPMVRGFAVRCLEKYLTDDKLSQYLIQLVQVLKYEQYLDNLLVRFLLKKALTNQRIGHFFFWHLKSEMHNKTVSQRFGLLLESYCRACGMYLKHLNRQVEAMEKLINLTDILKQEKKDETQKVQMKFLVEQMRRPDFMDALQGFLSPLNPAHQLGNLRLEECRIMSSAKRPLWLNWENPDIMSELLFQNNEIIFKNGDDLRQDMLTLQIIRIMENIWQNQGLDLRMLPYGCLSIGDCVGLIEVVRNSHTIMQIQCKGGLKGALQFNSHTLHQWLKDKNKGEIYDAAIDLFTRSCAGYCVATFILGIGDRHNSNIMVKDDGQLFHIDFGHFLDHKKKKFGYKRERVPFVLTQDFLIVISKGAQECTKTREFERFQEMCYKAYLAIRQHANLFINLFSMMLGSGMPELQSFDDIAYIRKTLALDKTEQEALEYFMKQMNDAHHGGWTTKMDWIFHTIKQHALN
UniProt P48736: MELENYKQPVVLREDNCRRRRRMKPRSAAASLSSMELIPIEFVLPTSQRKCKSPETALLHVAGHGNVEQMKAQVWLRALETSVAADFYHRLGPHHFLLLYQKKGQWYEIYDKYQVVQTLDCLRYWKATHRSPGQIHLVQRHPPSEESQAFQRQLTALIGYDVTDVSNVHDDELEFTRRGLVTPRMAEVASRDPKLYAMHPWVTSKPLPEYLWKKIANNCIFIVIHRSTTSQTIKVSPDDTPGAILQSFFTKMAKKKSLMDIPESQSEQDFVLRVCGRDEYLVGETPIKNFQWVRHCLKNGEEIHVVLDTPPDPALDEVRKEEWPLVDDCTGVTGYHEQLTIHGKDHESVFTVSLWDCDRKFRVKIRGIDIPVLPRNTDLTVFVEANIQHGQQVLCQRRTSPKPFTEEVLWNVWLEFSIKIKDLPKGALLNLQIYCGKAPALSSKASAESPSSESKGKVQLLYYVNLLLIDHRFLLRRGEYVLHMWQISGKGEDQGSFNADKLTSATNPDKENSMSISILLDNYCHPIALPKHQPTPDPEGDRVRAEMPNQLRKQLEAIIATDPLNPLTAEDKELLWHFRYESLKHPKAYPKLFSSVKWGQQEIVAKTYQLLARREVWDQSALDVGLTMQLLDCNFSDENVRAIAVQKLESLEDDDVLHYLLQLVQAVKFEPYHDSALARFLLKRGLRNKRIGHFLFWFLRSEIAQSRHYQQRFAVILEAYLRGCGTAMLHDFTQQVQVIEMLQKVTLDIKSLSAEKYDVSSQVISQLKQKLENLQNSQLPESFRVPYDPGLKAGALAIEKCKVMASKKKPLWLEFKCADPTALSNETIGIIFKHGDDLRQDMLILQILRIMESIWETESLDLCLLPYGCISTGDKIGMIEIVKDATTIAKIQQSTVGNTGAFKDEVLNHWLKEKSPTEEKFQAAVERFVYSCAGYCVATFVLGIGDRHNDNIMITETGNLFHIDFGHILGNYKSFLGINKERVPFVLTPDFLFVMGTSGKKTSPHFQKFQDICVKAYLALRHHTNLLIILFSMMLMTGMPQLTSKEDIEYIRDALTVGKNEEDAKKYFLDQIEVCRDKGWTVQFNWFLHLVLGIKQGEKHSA

What was measured:
[1] = biological target: Phosphatidylinositol 4,5-bisphosphate 3-kinase catalytic subunit alpha isoform (Homo sapiens, UniProt P42336)
[2] = biological target: Phosphatidylinositol 4,5-bisphosphate 3-kinase catalytic subunit gamma isoform (Homo sapiens, UniProt P48736)

Row | SMILES | IC50 [1] | IC50 [2]
1 | CC(C)n1nc(-c2cc3c(Cl)c(O)ccc3[nH]2)c2c(N)ncnc21 | > 500 nM | –
2 | COc1cccc2cc(-c3nn(C(C)C)c4ncnc(N)c34)[nH]c12 | > 500 nM | > 500 nM
